Experimental data as given in publication PMC8202330, “Phosphorylation of the LIR Domain of SCOC Modulates ATG8 Binding Affinity and Specificity” (Journal of Molecular Biology, 2021).

Columns and labels:
[1] = target: SCOC LIR peptide phosphorylated at S12 and S18 (BLI) (human); test: BLI; biotinylated LIR peptide immobilized on streptavidin biosensor, ATG8 in solution; 25 mM Tris pH 7.5, 150 mM NaCl, 0.5 mM TCEP, 0.1% Tween20, 1 mg/ml BSA; 25 °C; Kd from response against concentration
[2] = target: SCOC pS12/pT15 LIR peptide (human); test: as above

In the case of “LC3B (for BLI) (from UniProt Q9GZQ8 1-120) (natural protein)”, the fold increase in affinity over SCOC WT LIR peptide [1] is reported as 34 fold and the fold increase in affinity over SCOC WT LIR peptide [2] is reported as 56 fold.
